For the assay, the target named is T1, Prostate-specific membrane antigen (Homo sapiens, UniProt Q04609).
T1 construct: also called PSMA; glutamate carboxypeptidase II; source: on PSMA-positive PC3-PIP cells
The experiment in a line: flow cytometry on cells; PSMA-positive PC3-PIP cells (PC3 as negative control) mixed with 5-fold dilution series of the construct, 20 μL, 15 min at 4°C; 5D3-CP33 detected by anti-Strep tag antibody and Alexa Fluor 647 secondary, ch5D3 by anti-human Alexa Fluor 647 secondary; KD by non-linear regression. The following applies: one partner purified.

Sequences of proteins named here, by UniProt entry; tags and fusion partners are left off.
UniProt Q04609, whole entry: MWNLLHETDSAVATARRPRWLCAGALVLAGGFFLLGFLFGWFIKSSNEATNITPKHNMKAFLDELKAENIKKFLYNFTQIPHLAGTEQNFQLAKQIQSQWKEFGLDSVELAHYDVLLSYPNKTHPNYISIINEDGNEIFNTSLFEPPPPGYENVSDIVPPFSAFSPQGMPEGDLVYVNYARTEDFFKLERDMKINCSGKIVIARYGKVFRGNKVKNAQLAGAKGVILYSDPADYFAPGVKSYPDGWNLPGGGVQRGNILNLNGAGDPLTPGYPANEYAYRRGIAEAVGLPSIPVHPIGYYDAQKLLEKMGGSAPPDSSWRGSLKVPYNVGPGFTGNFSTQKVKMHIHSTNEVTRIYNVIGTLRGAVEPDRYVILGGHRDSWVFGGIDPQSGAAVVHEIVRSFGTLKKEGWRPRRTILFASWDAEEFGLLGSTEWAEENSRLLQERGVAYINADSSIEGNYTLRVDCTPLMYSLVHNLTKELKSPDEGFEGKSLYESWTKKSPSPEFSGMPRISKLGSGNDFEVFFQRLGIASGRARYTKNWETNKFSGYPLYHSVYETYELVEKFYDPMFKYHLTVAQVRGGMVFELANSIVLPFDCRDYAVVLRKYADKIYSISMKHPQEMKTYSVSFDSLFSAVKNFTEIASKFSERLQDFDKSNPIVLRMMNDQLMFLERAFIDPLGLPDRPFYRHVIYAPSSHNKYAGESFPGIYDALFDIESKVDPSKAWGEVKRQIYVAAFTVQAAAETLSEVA

B1: chimeric 5D3 (5D3 variable murine domains fused to constant domains of human IgG1) (antibody, V domains shown)
VH: EVQLQQSGPELVKPGASVKISCKTSGYAFNTSWMNWVKQRPGQGLEWIGRIYPGDGDTNYNGKFKGKATLTADKSSSTAHMHLSSLTSVDSAVYFCARGEWYLYYFDYWGQGTTLTVSS
VL: DIQMTQTTSSLSASLGDRVTISCSASQGINNFLTWYQQKPDGTLKLLIYYTSSLHSGVPSRFSGSGSGTDYSLTIRNLEPEDIATYYCQQYSNLPFTFGGGTKVEIK
On to B1, for which the dissociation constant (Kd) came to 1.6 nM. That is a single-digit nanomolar value.

As a reminder, the Kd is the concentration at which binding is half-saturated.

Source of the values: paper PMC11913275, “Targeting prostate cancer by new bispecific monocyte engager directed to prostate-specific membrane antigen” (PLOS One, 2025).
